For orientation: inhibition means the share of the control response that was lost under treatment.

Chains of the proteins cited; added tags and fusions are not shown. Residues count along the entry.
UniProt P03951, 19-387 limits assumed: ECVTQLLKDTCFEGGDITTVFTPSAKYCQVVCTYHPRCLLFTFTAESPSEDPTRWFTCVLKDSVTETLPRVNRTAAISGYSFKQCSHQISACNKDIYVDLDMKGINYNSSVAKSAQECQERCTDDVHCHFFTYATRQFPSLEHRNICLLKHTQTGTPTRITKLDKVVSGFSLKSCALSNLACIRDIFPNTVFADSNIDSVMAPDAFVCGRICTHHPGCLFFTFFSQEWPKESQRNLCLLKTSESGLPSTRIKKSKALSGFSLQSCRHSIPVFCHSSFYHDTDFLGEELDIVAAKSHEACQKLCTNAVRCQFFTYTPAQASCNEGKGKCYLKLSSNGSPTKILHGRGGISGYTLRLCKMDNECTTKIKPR
UniProt P03951, 388-625 limits assumed: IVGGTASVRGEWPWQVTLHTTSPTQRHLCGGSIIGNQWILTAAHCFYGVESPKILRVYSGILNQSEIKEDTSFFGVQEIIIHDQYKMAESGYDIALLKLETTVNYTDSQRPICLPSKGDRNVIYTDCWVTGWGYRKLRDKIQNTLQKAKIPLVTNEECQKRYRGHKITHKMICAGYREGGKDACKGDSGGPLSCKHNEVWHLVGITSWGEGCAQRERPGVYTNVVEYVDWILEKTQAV

Only a part is listed here, and it is no random draw. Calls of active or inactive are those of the source. Cut-off read from the data, not from the text of the source: active = inhibition above about 20% (passing the limit was not always enough); inactive = the rest.

This assay has as its target Coagulation factor XI (Homo sapiens) (UniProt P03951). Put plainly: human factor XIa inhibition by mixtures – biochemical, 10-compound mixtures, primary screen (AID 680).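 Note: each value is inhibition by a whole ten-compound pool holding the compound; 0% = enzyme with no mixture and 100% = wells lacking enzyme.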 Particulars: purified FXIa, fluorogenic substrate, pooled mixtures; at 5 µM; stronger effect = higher value.
Regarding `N#CC1(Nc2ccccc2)CCN(CCc2ccccc2)CC1`, the inhibition was inactive: 8.17%.

With `O=C(OC1CN2CCC1CC2)C1c2ccccc2Oc2ccccc21` (stereo unspecified), the inhibition is inactive: 5.59%.

`CCOc1ncccc1C(=O)NCC1(N2CCOCC2)CCCCC1`: the inhibition is inactive: 2.43%.

In the case of `CCC(CO)(C(=O)OC1CN2CCC1CC2)c1ccccc1` (stereo unspecified), the inhibition is inactive: 3.62%.

`Fc1ccccc1NC1CCN(Cc2ccccc2)CC1`: the inhibition is inactive: 7.22%.

On to `N/C(=N\O)c1c(N)no[n+]1[O-]`, for which the inhibition was inactive: 3.27%.

For the origin of these results see PubChem BioAssay AID680 (PCMD, 2007).
